Assay results: patent US12398154B2, “Azaquinazoline pan-KRas inhibitors” (Mirati Therapeutics, Inc., priority 2020, dated 2025)

Amino acid sequences for entries named in this document (tags omitted). Residues count along the entry.
UniProt P01116, 1-169 isoform 2 G13D limits assumed: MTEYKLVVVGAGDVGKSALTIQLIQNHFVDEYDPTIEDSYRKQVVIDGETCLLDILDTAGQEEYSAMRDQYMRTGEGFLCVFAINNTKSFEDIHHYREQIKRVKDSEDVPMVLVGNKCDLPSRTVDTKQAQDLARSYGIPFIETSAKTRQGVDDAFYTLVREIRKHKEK
UniProt P01116, 1-169 isoform 2 Q61H limits assumed: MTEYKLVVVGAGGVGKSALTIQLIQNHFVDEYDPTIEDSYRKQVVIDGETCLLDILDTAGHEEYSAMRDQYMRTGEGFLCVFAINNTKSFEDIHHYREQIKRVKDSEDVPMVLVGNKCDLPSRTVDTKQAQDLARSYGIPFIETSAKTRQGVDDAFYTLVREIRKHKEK

How the values were obtained:
KRas Q61H = KRas Q61H (Homo sapiens, UniProt P01116, Q61H); assay: KRas binding assay (TR-FRET displacement); conditions: read-out: Binding to KRas (IC50 nM) Q61H;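 also: TR-FRET signal read after one hour at room temperature, IC50 derived by four-parameter fitting of percent-of-control values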
KRas G13D = KRas G13D (Homo sapiens, UniProt P01116, G13D); assay: KRas binding assay (TR-FRET displacement); conditions: read-out: Binding to KRas (IC50 nM) G13D;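 also: One-hour room temperature incubation before TR-FRET reading, IC50 from a four-parameter curve fit to percent-of-control data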
[1] = tested on: phospho-ERK in HCT116 (G13D) cells; assay: Inhibition of KRas-mediated phosphorylation of ERK (in-cell western); conditions: read-out: Inhibition (IC50, nM) of KRas-mediated Phosphorylation of ERK, HCT116, 3 hours compound, phospho-ERK normalized to GAPDH
[2] = tested on: phospho-ERK in NCI-H460 (Q61H) cells; assay: as above; conditions: read-out: Inhibition (IC50, nM) of KRas-mediated Phosphorylation of ERK, H460, 3 hours compound, phospho-ERK normalized to GAPDH
[3] = tested on: phospho-ERK in NCI-H358 (G12C) cells; assay: as above; conditions: read-out: Inhibition (IC50, nM) of KRas-mediated Phosphorylation of ERK, H358, 3 hours compound, phospho-ERK normalized to GAPDH
[4] = tested on: phospho-ERK in AsPC-1 (G12D) cells; assay: as above; conditions: read-out: Inhibition (IC50, nM) of KRas-mediated Phosphorylation of ERK, AsPC-1, 3 hours compound, phospho-ERK normalized to GAPDH
[5] = tested on: phospho-ERK in A549 (G12S) cells; assay: as above; conditions: read-out: Inhibition (IC50, nM) of KRas-mediated Phosphorylation of ERK, A549, 3 hours compound, phospho-ERK normalized to GAPDH
[6] = tested on: phospho-ERK in PSN-1 (G12R) cells; assay: as above; conditions: read-out: Inhibition (IC50, nM) of KRas-mediated Phosphorylation of ERK, PSN1, 3 hours compound, phospho-ERK normalized to GAPDH
[7] = tested on: phospho-ERK in MKN1 (WTdep) cells; assay: as above; conditions: read-out: Inhibition (IC50, nM) of KRas-mediated Phosphorylation of ERK, MKN1, 3 hours compound, phospho-ERK normalized to GAPDH
[8] = tested on: phospho-ERK in NCI-H727 (G12V) cells; assay: as above; conditions: read-out: Inhibition (IC50, nM) of KRas-mediated Phosphorylation of ERK, H727, 3 hours compound, phospho-ERK normalized to GAPDH

Compound	IC50 (KRas Q61H) [nM]	IC50 (KRas G13D) [nM]	IC50 [1] [nM]	IC50 [2] [nM]	IC50 [3] [nM]	IC50 [4] [nM]	IC50 [5] [nM]	IC50 [6] [nM]	IC50 [7] [nM]	IC50 [8] [nM]
OC1COCCN(c2nc(OCC34CCCN3CCC4)nc3c(F)c(-c4cccc5cccc(F)c45)ncc23)C1 (stereo not drawn)	3440	3620	–	–	–	–	–	–	–	–
CCc1c(F)ccc2cc(O)cc(-c3ncc4c(NCc5ncc[nH]5)nc(OC[C@@]56CCCN5C[C@H](F)C6)nc4c3F)c12	14	13	≥ 10000	2920	701	≥ 10000	≥ 10000	≥ 10000	412	≥ 10000
